# According to patent US11026423B2, “Herbicidal compositions and methods” (SePRO Corporation, priority 2013, dated 2021):
# Legend:
# soybean = test: Pot demonstration of safening in soybean (FIG. 5); type: in vivo
# Procedure: This evidences a very unique safening interaction of fluridone plus PPO-inhibitors by crop species without the interaction causing a similar safening effect on the weed. […] FIG. 5 illustrates the safening effect of the fluridone and flumioxazin combination on soybean. […] The pot on the right, soybeans were treated with both fluridone and flumioxazin, with the resulting plants having no bleaching, while still maintaining significant weed control.
# soybean plants = test: Example 3 growth chamber trial, pre-emergent application on soybean; type: in vivo; conditions: fluridone alone, pre-emergent (FIG. 10)
# Procedure: (§1) 0.1 L conical assay tubes were planted with a cotton or soybean seed in a sample of sandy loam soil. Seven tubes were prepared for each herbicide application rate. Application of a herbicide composition was performed after planting the seed and prior to the plant's emergence from the soil (i.e., pre-emergent or PRE). Approximately 0.15 inches of water was applied to each pot four hours after application. […] The greenhouse was maintained at 26±5° C. during the day and 11±1° C. during the night.
# cotton plants = test: Example 3 growth chamber trial, pre-emergent application on cotton; type: in vivo; conditions: 0.2 lb/A fluridone, seven tubes
# Procedure: as §1
# [1] = test system: sweet almond (Prunus dulcis); test: Example 6 field trials: almond tolerance; type: in vivo
# Procedure: Field trials were conducted in California to determine sweet almond (Prunus dulcis) tolerance to fluridone and efficacy of fluridone in an irrigated orchard environment. Trial locations included a two-year old almond stand in Kerman, Calif. and a six-year old stand in Shafter, Calif. The soil in both locations is classified as a sandy loam. Applications prior to emergence of weeds (PRE) of herbicides were made in the month of January in Kerman and in the month of January in Shafter. Herbicide treatments in both locations included fluridone applied at 0.1 lb/ac (about 11.25 kg/km^2), 0.2 lb/ac (about 22.5 kg/km^2), 0.4 lb/ac (about 45 kg/km^2), and 0.8 lb/ac (about 90 kg/km^2) and flumioxazin at 0.38 lb/ac (about 42.75 kg/km^2)(Table 9). Rainfall (0.32 in (about 0.813 cm)) and irrigation (1.5 in (about 3.81 cm)) one day after PRE applications were used to incorporate herbicides into the soil at the Kerman and Shafter locations, respectively. […] Visual evaluations of crop injury and weed control were made monthly on a 0 to 100% scale. Postemergent (POST) broadcast applications of a non-selective, contact herbicide was broadcast across all treatments in Kerman prior to the 90 days after treatment and 119 days after treatment (DAT) ratings. Thus, data from those ratings dates was not evaluated. No POST applications were made in Shafter.
# [2] = test system: 'Thompson' grape (Vitis vinifera); test: Example 7 field trials: grape tolerance; type: in vivo; conditions: PRE application, Kerman and Kingsburg
# Excerpt: Trials were placed in grape vineyards located in Kerman and Kingsburg, Calif. The soil in both locations is classified as a sandy loam. Preemergent herbicide applications were made in the month of January in Kerman and in the month of March in Kingsburg. Herbicide treatments in both locations included fluridone applied at 0.1 lb/ac (about 11.25 kg/km^2), 0.2 lb/ac (about 22.5 kg/km^2), 0.4 lb/ac (about 45 kg/km^2), and 0.8 lb/ac (about 90 kg/km^2) and flumioxazin at 0.38 lb/ac (about 42.75 kg/km^2) (Table 9, supra). Additionally, indaziflam applied at 0.065 lb/ac was included at the Kingsburg site. […] Visual evaluations of crop injury and weed control were made monthly on a 0 to 100% scale. Cultivation occurred in the row centers at the Kerman location following the 58 DAT evaluations, and therefore, the Kerman results following 58 DAT were not evaluated. No cultivation occurred in Kingsburg during the trial period.
# [3] = test system: walnut trees (Chandler variety); test: Example 11 walnut orchard field trial: crop tolerance; type: in vivo, English Walnut; conditions: dormant 4th year walnut orchard
# Procedure: A field trial was performed in a dormant 4th year walnut orchard (Chandler variety) located near Stockton, Calif. The trial was initiated in December for weed efficacy studies and crop tolerance studies. Plots were about 8 feet by about 18 feet (about 2.43 meters by about 5.49 meters) with one tree per plot arranged in a randomized complete block design with three replications. Fluridone, flumioxazin, Roundup, and glufosinate ammonium were tested.
# nonpareil almond [4] = test: Example 12 Arbuckle almond orchard: crop safety; type: in vivo; conditions: any application rates
# Procedure: (§2) A field trial was conducted in northern California for weed control and safety in one peach orchand and two almond orchards. The herbicide applications were made between January and February when the tree crops were dormant.
# Weed control and crop safety were evaluated at approximately 1, 2, and 3 months after treatment. Weed pressure was fairly heavy, and uniform over the trial site. Populations of hare barley, annual sowthistle, black medic, chickweed, and redstem filaree were recorded.
# nonpareil almond [5] = test: Example 12 UC Davis almond orchard: crop safety; type: in vivo; conditions: 1 to 5 months after treatment
# Procedure: as §2
# Weed control and crop safety were evaluated approximately 1, 2, 3, 4, and 5 months after treatment with fluridone.
# peach = test: Example 12 Marysville peach orchard: crop safety; type: in vivo; conditions: 1 to 5 months after treatment
# Procedure: as §2
# Crop safety was evaluated approximately 1, 2, 3, 4, and 5 months after treatment with fluridone.
# [6] = test system: "Cara Cara" orange (Citrus sinensis); test: Example 8 field trial: orange tolerance; conditions: Elderwood, PRE application, trial period
substance,measurement,setting,value
1-methyl-3-phenyl-5-[3-(trifluromethyl)phenyl]-4(1H)-pyridone [fluridone],bleaching,soybean,causes bleaching to the cotyledon
same,percentage of chlorosis,soybean plants,80%
same,crop stand (number of viable plants),cotton plants,four surviving plants out of seven
same,phytotoxicity,"[1]; Kerman, any PRE herbicide application",Phytotoxicity was not observed
same,greatest phytotoxicity,"[1]; Shafter, 158 and 180 DAT, 0.8 lb fluridone/ac, PRE",8.3%
same,phytotoxicity,[2],Phytotoxicity was not observed
same,phytotoxicity,[2]; listed as Fluridone,did not result in phytotoxicity
same,walnut tree tolerance,[3],no visual leaf symptoms or retarded tree growth
same,phytotoxicity symptoms,nonpareil almond [4],no phytotoxicity symptoms were observed
same,phytotoxicity symptoms,nonpareil almond [5],no phytotoxicity symptoms were observed
same,phytotoxicity symptoms,peach,No phytotoxicitity symptoms were observed
same,phytotoxicity,[6],did not contribute to phytotoxicity
same,phytotoxicity,[6]; listed as Fluridone,did not result in phytotoxicity
